# Measured affinities in a library of Ab-95 light chain variants

From the AlphaSeq antibody data of Engelhart et al. 2022 (doi:10.1038/s41597-022-01779-4), copy in the FLAb collection.

All variants were tested on one target, the spike HR2 peptide PDVDLGDISGINAS (SARS-CoV-2).

Ab-95 is the parent antibody, in scFv form: VH, then a (GGGGS)3 linker, then VL. The heavy chain is unchanged in all variants.
VH: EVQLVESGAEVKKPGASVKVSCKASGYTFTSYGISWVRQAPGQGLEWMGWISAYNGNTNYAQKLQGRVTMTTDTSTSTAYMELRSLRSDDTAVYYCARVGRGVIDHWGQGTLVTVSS
VL: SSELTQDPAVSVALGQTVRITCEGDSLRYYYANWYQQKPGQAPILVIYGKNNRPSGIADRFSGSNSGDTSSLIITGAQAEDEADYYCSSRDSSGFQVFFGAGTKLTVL

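The parent was found by panning a naive human phage display library on the peptide. Variants in AAYL52 differ from the parent at up to three CDR positions; double and triple changes were sampled at random. AlphaSeq pools MATa yeast showing the antibodies with MATalpha yeast showing the peptide. Pairs that bind mate more often; barcode pairs of the diploids are counted by sequencing. Scores were corrected for input abundance and mapped to Kd with protein pairs of known affinity run in the same pool. The assay was run in three technical replicates.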

Changes read parent residue, position, new residue, counted from the first residue of the VL shown.
Scale: log10 of Kd in nM, estimated from mating counts; low values are strong binders.
A pair that was not seen in that replicate is written "ND"; this usually means weak binding, but a binder can also be missed.
Three control strains display no target. For library AAYL52, 28% of the pairings with them gave a signal, with a median of 3.91 and one signal in twenty below 2.90, so weak values seen in few replicates may be background. For each scFv, signals with the empty controls are counted beside the result, with their mean in brackets.

changes,"replicates, log10 nM",signal with controls
K50S/N51Y/S93A,3.69 2.83 2.42,2/9 (4.26)
G49F/S55L/G94Y,3.48 ND ND,1/9 (3.58)
L27E/G49I/N52C,ND 4.46 ND,1/9 (3.85)
L27Y/S88I/F95Q,ND ND 3.91,2/9 (4.17)
R28P/Y29M/S89G,2.35 2.17 3.05,0/9
Y31S/N51P/N52E,2.68 2.66 2.69,8/9 (3.78)
K50N/N51E/S55H,2.24 2.28 2.13,5/9 (4.59)
N51I/S88A/S93T,ND ND ND,2/9 (3.87)
D25G/K50Q/F98T,2.12 3.51 2.83,4/9 (3.79)
R28I/S93E/Q96M,3.49 3.39 2.71,3/9 (4.18)
Y29K/S88D/S89K,ND ND ND,1/9 (2.67)
E23F/A32N,2.93 2.83 3.57,4/9 (4.07)
D25T/Y29L/V97I,3.67 4.13 3.21,3/9 (3.92)
Y29M/N51P/N52T,4.58 4.92 4.13,9/9 (4.25)
N51D/S92G/Q96P,3.40 2.53 3.35,2/9 (3.75)
G24H/D25G/Y30N,1.70 1.82 1.41,3/9 (3.67)
L27E/Y29E/A32H,ND ND ND,0/9
G49W/S89I/D91V,4.51 ND 4.73,3/9 (3.89)
S26H/G49F/F98S,4.11 ND 4.16,3/9 (4.29)
N51T/N52V/S89N,3.77 3.66 ND,2/9 (4.75)
G49H/F98N,3.29 ND ND,0/9
Y29T/Y31W/S88R,ND 3.50 2.74,3/9 (3.79)
E23F/P54S,2.92 2.79 2.58,0/9
L27V/S92C/S93I,3.34 3.34 2.62,2/9 (5.32)
R90H/S93D/V97E,5.69 ND ND,3/9 (4.60)
D25N/N33Y/P54L,ND ND ND,1/9 (3.84)
N33A/N52F/S88A,ND ND 3.05,3/9 (3.97)
G24M/L27K/R28I,ND ND ND,2/9 (3.45)
G24N/R28D/F95P,ND 4.31 ND,4/9 (4.00)
K50H/N52E/S93L,2.17 2.59 1.76,2/9 (3.28)
D25Y/S55L/V97Q,ND 4.15 ND,1/9 (3.16)
Y29S/R53C/D91W,3.20 3.54 4.25,3/9 (4.71)
N33A/S88N,5.75 5.31 ND,2/9 (3.67)
Y31G/S55L/S89H,2.04 1.83 1.67,0/9
D25M/S26W/N33P,ND 3.48 ND,4/9 (4.17)
N33L/G49S/F95A,ND 5.41 ND,0/9
L27G/N51C/D91N,3.29 ND ND,3/9 (3.78)
S26G/G49L/K50V,ND 3.50 3.79,1/9 (4.67)
S89M/S93Y/F95E,3.15 3.03 4.40,5/9 (3.82)
K50I/R53H/S88A,3.46 3.46 ND,1/9 (3.67)
S26V/N52K/F95C,3.53 ND ND,1/9 (3.95)
L27W/N33E/D91L,ND ND ND,0/9
Y31D/K50D/S55K,1.26 1.22 0.77,3/9 (3.84)
D25G/P54M/S88R,4.40 ND 4.28,5/9 (3.80)
Y30D/P54A,1.74 1.81 1.54,3/9 (4.20)
D25G/F95C/V97L,ND 3.95 2.77,0/9
Y30K/N51S/V97P,2.12 2.09 2.03,2/9 (4.27)
G24C/D25W/S88C,4.53 ND ND,1/9 (4.43)
G24P/P54F,ND 5.44 4.37,2/9 (4.38)
L27R/N51H,ND ND ND,2/9 (4.34)
Y29N/P54D/F98S,2.07 2.11 2.59,4/9 (4.31)

The opening 8 entries, copied out:

changes	replicates, log10 nM	signal with controls
K50S/N51Y/S93A	3.69 2.83 2.42	2/9 (4.26)
G49F/S55L/G94Y	3.48 ND ND	1/9 (3.58)
L27E/G49I/N52C	ND 4.46 ND	1/9 (3.85)
L27Y/S88I/F95Q	ND ND 3.91	2/9 (4.17)
R28P/Y29M/S89G	2.35 2.17 3.05	0/9
Y31S/N51P/N52E	2.68 2.66 2.69	8/9 (3.78)
K50N/N51E/S55H	2.24 2.28 2.13	5/9 (4.59)
N51I/S88A/S93T	ND ND ND	2/9 (3.87)